Key:
[1] = biological target: T1, Aurora A / TPX2 (1-43) (Homo sapiens, UniProt O14965); assay: Microscale thermophoresis, Aurora A binding to labeled TPX2 1-43; conditions: no inhibitor
T1 construct: human Aurora A kinase domain (residues 122-403 in the pET24-d vector); His-tag (cleaved yes); made in house; host or cells: E. coli BL21 (DE3) Rosetta (Aurora A); E. coli Bl21 (DE3) (TPX2)
T1 sequence (O14965 122-403): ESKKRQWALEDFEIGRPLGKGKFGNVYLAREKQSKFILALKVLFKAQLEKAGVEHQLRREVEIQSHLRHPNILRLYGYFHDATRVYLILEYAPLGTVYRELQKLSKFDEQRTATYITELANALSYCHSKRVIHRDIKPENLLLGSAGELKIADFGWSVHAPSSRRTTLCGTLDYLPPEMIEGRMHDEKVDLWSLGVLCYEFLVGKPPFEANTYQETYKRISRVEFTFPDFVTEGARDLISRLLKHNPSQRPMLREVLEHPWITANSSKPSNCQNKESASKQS
Description: The clone of human TPX2 N-terminal domain (residues 1-43), preceded by GST and a TEV cleavage site, was a generous gift from the Conti laboratory (MPI, Martinsried). The protein was expressed in E. coli Bl21 (DE3) cells using 0.1 mM IPTG at 20° C. for 12 hours. Cells were broken and the soluble fraction was isolated as explained above. TPX2 was purified using a GSTrap (GE Healthcare) equilibrated in 50 mM Tris, 150 mM NaCl, pH=7.5. GST-TPX2 was eluted using final buffer plus 10 mM reduced glutathione. The GST-tag was cleaved with TEV protease at 4° C. overnight. TPX2 (1-43) was isolated in a final step of size exclusion chromatography using a HiLoad 16/60 Superdex™ 75 column (GE Healthcare) equilibrated in final buffer. Protein concentration was determined by UV absorbance. TPX2 was flash frozen in liquid nitrogen and stored at −18° C.
TPX2 was labelled using the Monolith NT.115 protein labelling kit RED (NanoTemper Technologies). […] Thermophoresis was measured at room temperature with 5 s/30 s/5 s laser off/on/off times. […] Data of three independent measurements were analyzed (NT.Analysis software, version 1.5.41, NanoTemper Technologies) using the thermophoresis signal after 10 sec. Points measured above 4.7 μM Aurora A were rejected.

[2] = biological target: T2, Aurora A bound to TPX2 (Homo sapiens, UniProt O14965); assay: Aurora A kinase activity and inhibition in the presence of TPX2; format: biochemical; conditions: TPX2 binding
T2 construct: human Aurora A kinase domain (residues 122-403 in the pET24-d vector); His-tag (cleaved yes); made in house; host or cells: E. coli
T2 sequence (O14965 122-403): T1 sequence (O14965 122-403)
Description: Aurora A and AuroraB kinases were assayed using the homogeneous time-resolved fluorescence (HTRF) KinEASE STK2 kit from Cisbio (France). […] For both enzymes, the reactions were run for 30 min at room temperature and stopped by the addition of 10 μL of detection buffer containing EDTA, antiphospho-Ser/Thr antibody labelled with europium cryptate, and XL-665 conjugated streptavidin (62.5 nM final concentration). After incubation at room temperature for one hour, fluorescence was measured at 620 nm (europium cryptate) and 665 nm (XL-665) after excitation at 317 nm (lag time 60 μs, integration time 500 μs) using a Tecan Infinite M1000 PRO microplate reader (Greiner 384-well plates, white, non-binding, small volume). The ratio of fluorescence (665 nm/620 nm) was calculated for each well and the results were expressed as follows: specific signal=ratio (sample)−ratio (negative control), where ratio=665 nm/620 nm×10^4. Compounds were measured in threefold serial dilutions at 10 different concentrations, covering the concentration range from no to full inhibition. Each concentration was measured in duplicates, and two independent determinations were made for each IC50 value. IC50 curves were generated using a four-parameter logistic model (XLfit from IDBS).

For “TPX2^1-43: human TPX2 N-terminal domain (residues 1-43), microtubule-associated activator protein of Aurora A”, the Kd [1] was 795 ± 129 nM and the “increase in the activity of Aurora A” value [2] was 3 fold.
